Laboratory results: paper PMC12010937, “Evaluation of FXR Activity in Pollutants Identified in Sewage Sludge and Subsequent in Vitro and in Vivo Characterization of Metabolic Effects of Triphenyl Phosphate” (Environmental Health Perspectives, 2025)

Columns and labels:
[1] = molecular target: T1, human FXR-LBD (GST-FXR-LBD) (Homo sapiens, UniProt Q96RI1); assay: HTRF coactivator recruitment assay, agonist mode; type: biochemical
T1 construct: the human FXR-LBD (residues 234–472) was expressed as a GST fusion protein GST-FXR-LBD; made in house; host or cells: E. coli BL21(DE3)
T1 sequence (Q96RI1 234-472 isoform Q96RI1-2): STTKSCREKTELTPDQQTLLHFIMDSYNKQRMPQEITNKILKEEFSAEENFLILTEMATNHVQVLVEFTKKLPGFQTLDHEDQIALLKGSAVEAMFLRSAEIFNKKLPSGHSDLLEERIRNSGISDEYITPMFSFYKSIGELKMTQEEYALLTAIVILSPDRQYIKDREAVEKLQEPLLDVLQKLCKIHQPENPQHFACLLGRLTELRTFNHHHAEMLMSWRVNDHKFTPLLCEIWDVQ

[2] = molecular target: T1, human FXR-LBD (GST-FXR-LBD); assay: HTRF coactivator recruitment assay, antagonist mode (in the presence of 50 μM CDCA); type: biochemical

CC(C)COP(=O)(OCC(C)C)OCC(C)C [TIBP, triisobutyl phosphate]
Relative activity, agonist mode [1]: 0.84%
Relative activity, antagonist mode [2]: 9.18%
